Measurements from the NIST ThermoML archive (doi:10.1021/je7005727).
± gives the expanded uncertainty stated by the source.

How the values were obtained:
[1] = xn = mol fraction of the nth substance listed; conditions: 101 kPa, Liquid
[2] = 101.33 kPa, Liquid; for speed of sound: Sing-around technique in a fixed-path interferometer

CCCCOCCCC [dibutyl ether] + CCCCCO
[1]
Conditions | mass density [kg/m3]
293.15 K, x2 = 0.0993 | 772.147 ± 0.76
293.15 K, x2 = 0.1509 | 774.059 ± 0.76
293.15 K, x2 = 0.1989 | 775.841 ± 0.76
293.15 K, x2 = 0.2498 | 777.791 ± 0.75
293.15 K, x2 = 0.2983 | 779.683 ± 0.75
293.15 K, x2 = 0.3468 | 781.629 ± 0.75
293.15 K, x2 = 0.3961 | 783.67 ± 0.75
293.15 K, x2 = 0.4504 | 785.99 ± 0.75
293.15 K, x2 = 0.5527 | 790.629 ± 0.75
293.15 K, x2 = 0.5997 | 792.852 ± 0.75
293.15 K, x2 = 0.651 | 795.356 ± 0.75
293.15 K, x2 = 0.6975 | 797.695 ± 0.75
293.15 K, x2 = 0.7501 | 800.433 ± 0.75
293.15 K, x2 = 0.7985 | 803.03 ± 0.75
293.15 K, x2 = 0.8506 | 805.928 ± 0.75
293.15 K, x2 = 0.9 | 808.751 ± 0.75
298.15 K, x2 = 0.0486 | 766.003 ± 0.77
298.15 K, x2 = 0.0986 | 767.846 ± 0.77
298.15 K, x2 = 0.1521 | 769.844 ± 0.77
298.15 K, x2 = 0.2022 | 771.744 ± 0.76
298.15 K, x2 = 0.252 | 773.657 ± 0.76
298.15 K, x2 = 0.2996 | 775.544 ± 0.76
298.15 K, x2 = 0.3515 | 777.661 ± 0.76
298.15 K, x2 = 0.3997 | 779.682 ± 0.76
298.15 K, x2 = 0.4497 | 781.857 ± 0.76
298.15 K, x2 = 0.4986 | 784.078 ± 0.76
298.15 K, x2 = 0.4987 | 788.132 ± 0.75
298.15 K, x2 = 0.5487 | 786.388 ± 0.76
298.15 K, x2 = 0.5982 | 788.753 ± 0.76
298.15 K, x2 = 0.6496 | 791.307 ± 0.76
298.15 K, x2 = 0.6966 | 793.726 ± 0.76
298.15 K, x2 = 0.7484 | 796.453 ± 0.76
298.15 K, x2 = 0.799 | 799.243 ± 0.76
298.15 K, x2 = 0.8506 | 802.115 ± 0.76
298.15 K, x2 = 0.9002 | 805.013 ± 0.76
298.15 K, x2 = 0.949 | 807.933 ± 0.76
298.15 K, x2 = 0.9491 | 811.645 ± 0.75
303.15 K, x2 = 0.0495 | 761.694 ± 0.78
303.15 K, x2 = 0.1034 | 763.696 ± 0.78
303.15 K, x2 = 0.1526 | 765.548 ± 0.78
303.15 K, x2 = 0.2049 | 767.554 ± 0.77
303.15 K, x2 = 0.2523 | 769.408 ± 0.77
303.15 K, x2 = 0.2985 | 771.264 ± 0.77
303.15 K, x2 = 0.3486 | 773.336 ± 0.77
303.15 K, x2 = 0.399 | 775.471 ± 0.77
303.15 K, x2 = 0.4497 | 777.705 ± 0.77
303.15 K, x2 = 0.4978 | 779.891 ± 0.77
303.15 K, x2 = 0.5493 | 782.353 ± 0.77
303.15 K, x2 = 0.6003 | 784.842 ± 0.77
303.15 K, x2 = 0.6499 | 787.293 ± 0.77
303.15 K, x2 = 0.6988 | 789.821 ± 0.77
303.15 K, x2 = 0.7492 | 792.539 ± 0.77
303.15 K, x2 = 0.8001 | 795.362 ± 0.77
303.15 K, x2 = 0.851 | 798.284 ± 0.77
303.15 K, x2 = 0.8974 | 801.027 ± 0.77
303.15 K, x2 = 0.9493 | 804.201 ± 0.77

CCCCOCCCC [dibutyl ether] + CCCCO
[1]
Conditions | mass density [kg/m3]
293.15 K, x2 = 0.0547 | 770.042 ± 0.76
293.15 K, x2 = 0.1046 | 771.461 ± 0.75
293.15 K, x2 = 0.1516 | 772.81 ± 0.75
293.15 K, x2 = 0.2005 | 774.247 ± 0.74
293.15 K, x2 = 0.2514 | 775.785 ± 0.74
293.15 K, x2 = 0.3016 | 777.369 ± 0.74
293.15 K, x2 = 0.3518 | 779.033 ± 0.73
293.15 K, x2 = 0.4012 | 780.726 ± 0.73
293.15 K, x2 = 0.4519 | 782.556 ± 0.73
293.15 K, x2 = 0.5008 | 784.403 ± 0.72
293.15 K, x2 = 0.5997 | 788.444 ± 0.71
293.15 K, x2 = 0.65 | 790.668 ± 0.71
293.15 K, x2 = 0.6984 | 792.9 ± 0.7
293.15 K, x2 = 0.7464 | 795.233 ± 0.7
293.15 K, x2 = 0.8488 | 800.592 ± 0.69
293.15 K, x2 = 0.898 | 803.384 ± 0.68
293.15 K, x2 = 0.9493 | 806.449 ± 0.67
298.15 K, x2 = 0.0517 | 765.646 ± 0.77
298.15 K, x2 = 0.1047 | 767.168 ± 0.76
298.15 K, x2 = 0.1499 | 768.464 ± 0.76
298.15 K, x2 = 0.2024 | 770.022 ± 0.76
298.15 K, x2 = 0.2519 | 771.537 ± 0.75
298.15 K, x2 = 0.2992 | 773.045 ± 0.75
298.15 K, x2 = 0.354 | 774.86 ± 0.74
298.15 K, x2 = 0.3987 | 776.425 ± 0.74
298.15 K, x2 = 0.4511 | 778.326 ± 0.74
298.15 K, x2 = 0.5037 | 780.345 ± 0.73
298.15 K, x2 = 0.5514 | 782.295 ± 0.73
298.15 K, x2 = 0.5983 | 784.258 ± 0.72
298.15 K, x2 = 0.6481 | 786.487 ± 0.72
298.15 K, x2 = 0.6993 | 788.884 ± 0.71
298.15 K, x2 = 0.7489 | 791.361 ± 0.71
298.15 K, x2 = 0.8004 | 794.002 ± 0.7
298.15 K, x2 = 0.8501 | 796.724 ± 0.69
298.15 K, x2 = 0.8974 | 799.453 ± 0.69
298.15 K, x2 = 0.9492 | 802.596 ± 0.68
303.15 K, x2 = 0.0544 | 761.363 ± 0.78
303.15 K, x2 = 0.1019 | 762.717 ± 0.77
303.15 K, x2 = 0.1509 | 764.148 ± 0.77
303.15 K, x2 = 0.2038 | 765.743 ± 0.77
303.15 K, x2 = 0.2505 | 767.184 ± 0.76
303.15 K, x2 = 0.3025 | 768.842 ± 0.76
303.15 K, x2 = 0.3542 | 770.576 ± 0.75
303.15 K, x2 = 0.3972 | 772.093 ± 0.75
303.15 K, x2 = 0.4501 | 774.032 ± 0.75
303.15 K, x2 = 0.5002 | 775.97 ± 0.74
303.15 K, x2 = 0.5493 | 777.978 ± 0.74
303.15 K, x2 = 0.6069 | 780.477 ± 0.73
303.15 K, x2 = 0.6491 | 782.394 ± 0.73
303.15 K, x2 = 0.7005 | 784.812 ± 0.72
303.15 K, x2 = 0.7451 | 787.095 ± 0.72
303.15 K, x2 = 0.8001 | 789.991 ± 0.71
303.15 K, x2 = 0.8482 | 792.622 ± 0.7
303.15 K, x2 = 0.899 | 795.603 ± 0.7
303.15 K, x2 = 0.9494 | 798.7 ± 0.69

CCCCOCCCC [dibutyl ether] + CCCCCCO
[1]
Conditions | mass density [kg/m3]
293.15 K, x2 = 0.1135 | 773.646 ± 0.75
293.15 K, x2 = 0.1548 | 775.499 ± 0.75
293.15 K, x2 = 0.1968 | 777.383 ± 0.75
293.15 K, x2 = 0.2469 | 779.653 ± 0.75
293.15 K, x2 = 0.2969 | 781.94 ± 0.75
293.15 K, x2 = 0.347 | 784.277 ± 0.75
293.15 K, x2 = 0.4017 | 786.883 ± 0.75
293.15 K, x2 = 0.4491 | 789.183 ± 0.74
293.15 K, x2 = 0.4976 | 791.595 ± 0.74
293.15 K, x2 = 0.5487 | 794.145 ± 0.74
293.15 K, x2 = 0.6 | 796.77 ± 0.74
293.15 K, x2 = 0.6466 | 799.236 ± 0.74
293.15 K, x2 = 0.6987 | 802 ± 0.74
293.15 K, x2 = 0.7487 | 804.703 ± 0.74
293.15 K, x2 = 0.8001 | 807.53 ± 0.74
293.15 K, x2 = 0.8478 | 810.199 ± 0.74
293.15 K, x2 = 0.8994 | 813.126 ± 0.74
293.15 K, x2 = 0.95 | 816.052 ± 0.74
298.15 K, x2 = 0.0541 | 766.673 ± 0.77
298.15 K, x2 = 0.0997 | 768.754 ± 0.76
298.15 K, x2 = 0.15 | 771.046 ± 0.76
298.15 K, x2 = 0.1969 | 773.192 ± 0.76
298.15 K, x2 = 0.2918 | 777.553 ± 0.76
298.15 K, x2 = 0.3499 | 780.298 ± 0.76
298.15 K, x2 = 0.3992 | 782.683 ± 0.76
298.15 K, x2 = 0.4465 | 785.027 ± 0.75
298.15 K, x2 = 0.4986 | 787.645 ± 0.75
298.15 K, x2 = 0.5482 | 790.177 ± 0.75
298.15 K, x2 = 0.5981 | 792.753 ± 0.75
298.15 K, x2 = 0.6444 | 795.225 ± 0.75
298.15 K, x2 = 0.6961 | 798.006 ± 0.75
298.15 K, x2 = 0.7483 | 800.877 ± 0.75
298.15 K, x2 = 0.799 | 803.718 ± 0.75
298.15 K, x2 = 0.8524 | 806.753 ± 0.75
298.15 K, x2 = 0.9 | 809.499 ± 0.75
298.15 K, x2 = 0.9492 | 812.385 ± 0.75
303.15 K, x2 = 0.0543 | 762.348 ± 0.78
303.15 K, x2 = 0.099 | 764.409 ± 0.77
303.15 K, x2 = 0.2007 | 769.103 ± 0.77
303.15 K, x2 = 0.251 | 771.443 ± 0.77
303.15 K, x2 = 0.3035 | 773.93 ± 0.77
303.15 K, x2 = 0.3511 | 776.214 ± 0.77
303.15 K, x2 = 0.3985 | 778.537 ± 0.76
303.15 K, x2 = 0.4482 | 781.018 ± 0.76
303.15 K, x2 = 0.4989 | 783.601 ± 0.76
303.15 K, x2 = 0.5501 | 786.255 ± 0.76
303.15 K, x2 = 0.5984 | 788.815 ± 0.76
303.15 K, x2 = 0.6564 | 791.951 ± 0.76
303.15 K, x2 = 0.6982 | 794.233 ± 0.76
303.15 K, x2 = 0.7491 | 797.128 ± 0.76
303.15 K, x2 = 0.7991 | 799.914 ± 0.76
303.15 K, x2 = 0.849 | 802.8 ± 0.76
303.15 K, x2 = 0.8961 | 805.567 ± 0.76
303.15 K, x2 = 0.9505 | 808.803 ± 0.76

CCCCOCCCC [dibutyl ether]
[2]
Conditions | mass density [kg/m3] | speed of sound [m/s]
293.15 K | 768.468 ± 0.52 | 1181.8 ± 0.8
298.15 K | 764.17 ± 0.53 | 1161.2 ± 0.79
303.15 K | 759.829 ± 0.54 | 1142.1 ± 0.78
